Test results reported in patent US20250123280A1, “LABEL-FREE DETECTION OF PROTEASE ACTIVITY” (OREGON HEALTH & SCIENCE UNIVERSITY, priority 2021, published 2025).

Test system: Peptide 3 (Fmoc-FKFELAGGAGEEGSGEEE)

## Recombinant human cathepsin B
  increase in ThT fluorescence after treatment of peptide 3 with cathepsin B: up to a 72 fold increase in ThT fluorescence after treatment of peptide 3 with cathepsin B
